Experimental data reported in article PMC8533642 (Journal of medicinal chemistry, 2021).

The chains behind the UniProt entries cited, without tags or fusion partners.
UniProt P56450, whole entry: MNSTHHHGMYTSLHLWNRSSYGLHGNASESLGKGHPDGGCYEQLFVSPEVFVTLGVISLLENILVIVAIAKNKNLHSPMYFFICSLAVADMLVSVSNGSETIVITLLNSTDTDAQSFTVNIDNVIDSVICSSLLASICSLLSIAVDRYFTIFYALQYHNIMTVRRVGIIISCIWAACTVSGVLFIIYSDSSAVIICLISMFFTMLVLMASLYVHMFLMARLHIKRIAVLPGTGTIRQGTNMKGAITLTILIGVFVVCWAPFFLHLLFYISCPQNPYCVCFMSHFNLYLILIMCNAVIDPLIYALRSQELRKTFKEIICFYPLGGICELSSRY

Biological target: mMC4R (Mus musculus, UniProt P56450)
Conditions: mMC4R versus mMC3R antagonist potency

CC(=O)N[C@H](Cc1ccc(I)cc1)C(=O)N[C@@H](CCCNC(=N)N)C(=O)N[C@@H](Cc1ccc2ccccc2c1)C(=O)N[C@@H](CCCNC(=N)N)C(N)=O [Peptide 48, Ac-DPhe(pI)-Arg-Nal(2’)-Arg-NH2]
selectivity for the mMC4R over the mMC3R (antagonist): 15 fold
